# Values of other authors, collected in patent publication US20070004639A1, “Methods and compositions for treating Parkinson's disease” (BodyBio, Inc., priority 2005, published 2007).
# Test system: Parkinson's Disease
# Conditions: in vivo; cited from earlier work
substance,measurement,value
carbidopa/levodopa,patients developing motor complications,50-80%
